From patent publication US4352810A, “1-Substituted hydroxyiminomethyl-pyridinium salts, with an activity against organophosphate poisonings” (dated 1982)

Target: tabun-inhibited acetylcholinesterase (Bos taurus, UniProt P23795)
Conditions: 10 μM; for kobs, velocity constant of the reactivation process: pH 7.5, 25° C. (Table B); for % react after 2h / % react, percentage reactivation after 24 hours (footnote a): pH 7.5, 25° C.; for % react after 2h: 2 hours (Table B); for % react, percentage reactivation after 24 hours (footnote a): 24 hours (Table B)

SMILES | kobs, velocity constant of the reactivation process | % react after 2h | % react, percentage reactivation after 24 hours (footnote a)
ON=Cc1cccc[n+]1Cc1ccsn1 | 7.5 ± 0.1 10^-3 min^-1 | 51% | 
ON=Cc1ccc[n+](Cc2ccccc2)c1 | < 0.1 10^-3 min^-1 |  | 1%
ON=Cc1cccc[n+]1CCc1ccccc1 | 0.60 ± 0.04 10^-3 min^-1 | 3% | 
ON=Cc1cccc[n+]1Cc1cscn1 | 1.38 ± 0.03 10^-3 min^-1 | 10% | 
ON=Cc1cccc[n+]1Cc1ccc(Cl)cc1 | 2.33 ± 0.05 10^-3 min^-1 | 19% | 
CC(c1ccccc1)[n+]1ccc(C=NO)cc1 (stereo not drawn) | < 0.1 10^-3 min^-1 |  | 4%
ON=Cc1cccc[n+]1Cc1ccc2ccccc2c1 | 1.39 ± 0.03 10^-3 min^-1 | 11% | 
C[N+](C)(C)c1ccc(C[n+]2ccccc2C=NO)cc1 | < 0.1 10^-3 min^-1 |  | 5%
ON=Cc1cccc[n+]1Cc1cccc(C(F)(F)F)c1 | 0.69 ± 0.04 10^-3 min^-1 | 4% | 
ON=Cc1cccc[n+]1CC1=CCC=CC1 | 3.98 ± 0.07 10^-3 min^-1 | 33% | 
ON=Cc1cccc[n+]1Cc1cc(I)cc(I)c1 | 1.62 ± 0.06 10^-3 min^-1 | 12% | 
COc1ccc(C[n+]2ccccc2C=NO)cc1 | 0.44 ± 0.12 10^-3 min^-1 | 2% | 
O=[N+]([O-])c1ccc(C[n+]2ccccc2C=NO)cc1 | 0.77 ± 0.04 10^-3 min^-1 | 5% | 
ON=Cc1cccc[n+]1Cc1cccs1 | 4.78 ± 0.09 10^-3 min^-1 | 38% | 
ON=Cc1cccc[n+]1Cc1cnsc1 | 1.24 ± 0.04 10^-3 min^-1 | 9% | 
ON=Cc1cc[n+](Cc2c[nH]cn2)cc1 | < 0.1 10^-3 min^-1 |  | 2%
ON=Cc1cccc[n+]1Cc1ccco1 | 1.78 ± 0.06 10^-3 min^-1 | 15% | 
Cc1cccc(C[n+]2ccccc2C=NO)c1 | 2.72 ± 0.04 10^-3 min^-1 | 23% | 
